# According to ChEMBL document CHEMBL3600307, “Synthesis, kinetic mechanism and docking studies of vanillin derivatives as inhibitors of mushroom tyrosinase” (Bioorg Med Chem, 2015):
# Substrate: COc1cc(C=O)ccc1OC(=O)COC(=O)/C=C/c1ccc(Cl)cc1
# Conditions: Agaricus bisporus; 33.3 uM
protein,measurement,value
"Tyrosinase (Agaricus bisporus), O42713 (protein) MSLIATVGPTGGVKNRLNIVDFVKNEKFFTLYVRSLELLQAKEQHDYSSFFQLAGIHGLPFTEWAKERPSMNLYKAGYCTHGQVLFPTWHRTYLSVLEQILQGAAIEVAKKFTSNQTDWVQAAQDLRQPYWDWGFELMPPDEVIKNEEVNITNYDGKKISVKNPILRYHFHPIDPSFKPYGDFATWRTTVRNPDRNRREDIPGLIKKMRLEEGQIREKTYNMLKFNDAWERFSNHGISDDQHANSLESVHDDIHVMVGYGKIEGHMDHPFFAAFDPIFWLHHTNVDRLLSLWKAINPDVWVTSGRNRDGTMGIAPNAQINSETPLEPFYQSGDKVWTSASLADTARLGYSYPDFDKLVGGTKELIRDAIDDLIDERYGSKPSSGARNTAFDLLADFKGITKEHKEDLKMYDWTIHVAFKKFELKESFSLLFYFASDGGDYDQENCFVGSINAFRGTAPETCANCQDNENLIQEGFIHLNHYLARDLESFEPQDVHKFLKEKGLSYKLYSRGDKPLTSLSVKIEGRPLHLPPGEHRPKYDHTQARVVFDDVAVHVIN",Km,1050 µM
